## AlphaSeq binding of Ab-14 heavy chain variants to a spike HR2 peptide

Target peptide (SARS-CoV-2 spike, HR2 region): PDVDLGDISGINAS

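Phage display of a naive human antibody library on the peptide gave the parent. This is the validation round: designs drawn from the data on random variants, tested in the same kind of assay. Their group label is 14H_GPLM_Gibbs (GPLM: also part of the Gaussian process libraries; Gibbs: Gibbs sampling; a sequence that several methods proposed may carry one label only). Affinity was read by AlphaSeq, a pooled yeast mating assay with surface-displayed partners. Pairs that bind mate more often; barcode pairs of the diploids are counted by sequencing. The ratio of observed to expected reads was calibrated, replicate by replicate, on BCL2-family standards whose Kd was known from biolayer interferometry. The assay was run in six technical replicates.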

Parent: Ab-14, a human scFv built as VH, a 15-residue (Gly4Ser)3 linker, VL. Only the CDRs of the heavy chain vary.
VH: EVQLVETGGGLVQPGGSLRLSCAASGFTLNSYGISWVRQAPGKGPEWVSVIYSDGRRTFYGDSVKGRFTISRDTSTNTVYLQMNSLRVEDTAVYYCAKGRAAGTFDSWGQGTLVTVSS
VL: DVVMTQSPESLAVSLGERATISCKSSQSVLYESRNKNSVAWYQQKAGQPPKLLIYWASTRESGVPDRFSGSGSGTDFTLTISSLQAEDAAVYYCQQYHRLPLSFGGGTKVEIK

Sequences are complete VH domains. Numbers give log10(Kd / nM), so 0 is 1 nM and 3 is 1 µM. Smaller is tighter. Where no diploid with the target was found in that replicate, the entry reads "n.d.": below detection, most likely a poor binder, though not proof of it. A sequence measured in both rounds can read differently, since the two assays cover different ranges. The parent sequence was in this pool as ten entries: three were never detected, three once, and four in most replicates, with averages from 0.34 to 2.37. Nonspecific signal, from three strains lacking the peptide, appeared in 1% of pairings of all heavy chain designs, centred on 2.08 (5% of these signals below 0.84); values are not corrected for it. The control count says in how many pairings with the empty strains this scFv gave a signal, with their mean in brackets. In the paper, a design with two or fewer of six values counts as a poor binder.

VH	log10 Kd, replicates	signal with controls
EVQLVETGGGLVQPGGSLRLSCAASGFGLNEYGISWVRQAPGKGPEWVSVIYSDGRRTFYGDSVKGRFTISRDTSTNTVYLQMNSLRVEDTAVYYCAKGRTAGTFDTWGQGTLVTVSS	0.92 / 1.55 / 1.23 / 1.22 / 1.44 / 1.18	1/18 (2.07)
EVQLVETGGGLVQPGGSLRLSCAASGFELNSYGISWVRQAPGKGPEWVSVIYSDGRRTFYIDSVKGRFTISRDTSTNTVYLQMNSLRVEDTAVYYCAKGQEAGTFDSWGQGTLVTVSS	0.58 / 0.75 / -0.14 / 0.50 / 0.21 / 0.62	0/18
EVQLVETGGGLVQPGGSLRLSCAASGFELNSYGISWVRQAPGKGPEWVSVIYSDGRRTFYGDSVKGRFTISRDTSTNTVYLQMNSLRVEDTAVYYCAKGRQAGTFDSWGQGTLVTVSS	0.91 / 0.76 / 0.57 / 0.53 / 0.56 / 0.71	1/18 (1.49)
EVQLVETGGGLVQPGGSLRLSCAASGFELNSYGISWVRQAPGKGPEWVSVIYSDGRRTFYIDSVKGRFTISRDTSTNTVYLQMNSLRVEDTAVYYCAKGKTAGTFDSWGQGTLVTVSS	0.53 / 1.33 / 1.33 / 1.40 / 0.91 / 1.53	0/18
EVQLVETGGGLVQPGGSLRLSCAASGFELNSYGISWVRQAPGKGPEWVSVIYSDGRRTYYGDSVKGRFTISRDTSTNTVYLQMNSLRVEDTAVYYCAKGRTAGTFDSWGQGTLVTVSS	1.68 / 1.32 / 1.26 / 0.70 / 1.02 / 0.76	2/18 (3.58)
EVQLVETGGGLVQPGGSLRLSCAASGFDLNSYGISWVRQAPGKGPEWVSVIYSDGRRTFYIDSVKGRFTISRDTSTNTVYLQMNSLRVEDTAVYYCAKGHAAGTFDSWGQGTLVTVSS	1.03 / 1.29 / 0.95 / 0.97 / 0.94 / 0.48	0/18
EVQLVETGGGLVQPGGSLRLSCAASGFNLNSYGISWVRQAPGKGPEWVSVIYSDGRRTFYGDSVKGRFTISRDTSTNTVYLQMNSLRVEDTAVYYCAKGKQAGTFDSWGQGTLVTVSS	1.97 / 1.44 / 1.46 / 0.81 / 0.79 / 1.11	0/18
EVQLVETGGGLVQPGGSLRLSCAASGFTLNSYGISWVRQAPGKGPEWVSVIYSDGKRTFYGDSVKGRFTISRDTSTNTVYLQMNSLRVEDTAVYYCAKGWVAGTFDFWGQGTLVTVSS	n.d. / 1.87 / 0.94 / n.d. / 1.68 / 1.88	2/18 (1.84)
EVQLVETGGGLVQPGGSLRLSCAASGFTLNSYGISWVRQAPGKGPEWVSVIYSDGQRTFYGDSVKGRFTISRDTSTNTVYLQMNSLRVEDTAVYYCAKGQTAGTFDTWGQGTLVTVSS	1.20 / 0.73 / 0.83 / 1.51 / 0.81 / 1.14	0/18
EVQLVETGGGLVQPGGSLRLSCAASGFTLNSYGISWVRQAPGKGPEWVSVIYSDGKRTFYGDSVKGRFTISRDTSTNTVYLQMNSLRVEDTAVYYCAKGRVAGTFDIWGQGTLVTVSS	1.64 / 1.29 / 1.18 / 1.18 / 1.23 / 0.91	2/18 (1.72)
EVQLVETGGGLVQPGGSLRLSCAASGFDLNSYGISWVRQAPGKGPEWVSVIYSDGRRTFYTDSVKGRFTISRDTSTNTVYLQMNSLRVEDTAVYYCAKGQAAGTFDLWGQGTLVTVSS	1.24 / 0.97 / 0.33 / 2.06 / 0.79 / 0.88	0/18
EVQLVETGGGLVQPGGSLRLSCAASGFTLNSYGISWVRQAPGKGPEWVSVIYSDGRRTFYGDSVKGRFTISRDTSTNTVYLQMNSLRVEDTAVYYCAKGQEAGTFDAWGQGTLVTVSS	1.84 / 0.52 / 1.15 / 1.37 / 1.28 / 0.60	0/18
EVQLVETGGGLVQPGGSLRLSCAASGFSLNSYGISWVRQAPGKGPEWVSVIYSDGRRTFYQDSVKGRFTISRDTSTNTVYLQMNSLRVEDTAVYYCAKGEAAGTFDKWGQGTLVTVSS	0.72 / 0.66 / 0.04 / 0.36 / 0.28 / 0.40	0/18
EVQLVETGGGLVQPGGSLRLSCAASHFNLNSYGISWVRQAPGKGPEWVSVIYSDGRRTFYADSVKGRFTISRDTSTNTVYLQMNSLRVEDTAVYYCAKGNAAGTFDSWGQGTLVTVSS	n.d. / 3.08 / 1.94 / 1.93 / n.d. / 1.81	0/18
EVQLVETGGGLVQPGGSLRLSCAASGFELNSYGISWVRQAPGKGPEWVSVIYSDGRRTFYGDSVKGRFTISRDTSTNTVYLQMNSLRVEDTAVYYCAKGNVAGTFDTWGQGTLVTVSS	1.04 / -0.22 / 0.67 / -0.01 / -0.66 / 0.80	0/18
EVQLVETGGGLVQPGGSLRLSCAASGFTLNSYGISWVRQAPGKGPEWVSVIYSDGQRTFYGDSVKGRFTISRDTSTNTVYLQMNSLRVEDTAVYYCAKGRVAGTFDLWGQGTLVTVSS	0.25 / 0.42 / 1.28 / n.d. / n.d. / 2.08	1/18 (0.88)
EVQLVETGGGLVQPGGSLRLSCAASGFTLNSYGISWVRQAPGKGPEWVSVIYSDGRRTFYTDSVKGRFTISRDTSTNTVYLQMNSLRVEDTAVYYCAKGKEAGTFDSWGQGTLVTVSS	0.98 / 0.25 / 0.63 / 0.00 / 0.60 / 0.56	3/18 (2.10)
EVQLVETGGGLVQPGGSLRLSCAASGFSLNYYGISWVRQAPGKGPEWVSVIYSDGRRTFYGDSVKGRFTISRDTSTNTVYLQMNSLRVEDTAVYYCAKGKTAGTFDSWGQGTLVTVSS	1.80 / 2.18 / 1.26 / 2.42 / 1.50 / 1.32	0/18
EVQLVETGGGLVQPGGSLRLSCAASGFKLNSYGISWVRQAPGKGPEWVSVIYSDGRRTFYTDSVKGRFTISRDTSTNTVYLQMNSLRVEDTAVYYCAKGKEAGTFDSWGQGTLVTVSS	0.86 / 0.05 / 0.18 / -0.44 / 0.16 / 0.14	0/18
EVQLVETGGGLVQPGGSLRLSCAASGFELNSYGISWVRQAPGKGPEWVSVIYSDGRRTFYGDNVKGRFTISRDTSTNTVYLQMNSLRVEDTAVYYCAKGRTAGTFDSWGQGTLVTVSS	0.16 / -0.47 / -0.34 / -0.29 / -0.20 / 0.06	0/18
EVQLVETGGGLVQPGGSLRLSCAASGFTLNSYGISWVRQAPGKGPEWVSVIYSDGRRTFYSDSVKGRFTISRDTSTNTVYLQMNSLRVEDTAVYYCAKGKVAGTFDSWGQGTLVTVSS	0.91 / 0.88 / 0.06 / 0.66 / 0.27 / 0.79	0/18
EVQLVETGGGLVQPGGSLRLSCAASGFTLNSYGISWVRQAPGKGPEWVSVIYSDGRRTFYSDSVKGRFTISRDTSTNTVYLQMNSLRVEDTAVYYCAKGKAAGTFDRWGQGTLVTVSS	n.d. / n.d. / n.d. / n.d. / n.d. / n.d.	0/18
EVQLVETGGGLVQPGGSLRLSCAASGFDLNTYGISWVRQAPGKGPEWVSVIYSDGRRTFYSDSVKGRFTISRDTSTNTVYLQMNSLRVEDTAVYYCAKGEAAGTFDSWGQGTLVTVSS	1.81 / 1.25 / 1.36 / n.d. / 1.05 / 1.52	0/18
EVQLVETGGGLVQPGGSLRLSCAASGFNLNSYGISWVRQAPGKGPEWVSVIYSDGRRTFYIDSVKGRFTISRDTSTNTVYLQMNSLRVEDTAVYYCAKGRSAGTFDSWGQGTLVTVSS	n.d. / n.d. / n.d. / n.d. / n.d. / n.d.	0/18

The first 2 variants above that were never detected:

{"VH": "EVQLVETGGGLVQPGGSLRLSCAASGFTLNSYGISWVRQAPGKGPEWVSVIYSDGRRTFYSDSVKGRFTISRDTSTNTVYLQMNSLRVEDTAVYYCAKGKAAGTFDRWGQGTLVTVSS", "log10 Kd, replicates": "n.d. / n.d. / n.d. / n.d. / n.d. / n.d.", "signal with controls": "0/18"}
{"VH": "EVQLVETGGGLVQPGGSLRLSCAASGFNLNSYGISWVRQAPGKGPEWVSVIYSDGRRTFYIDSVKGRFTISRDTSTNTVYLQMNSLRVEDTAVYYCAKGRSAGTFDSWGQGTLVTVSS", "log10 Kd, replicates": "n.d. / n.d. / n.d. / n.d. / n.d. / n.d.", "signal with controls": "0/18"}

From the AlphaSeq antibody data of Li et al. 2023 (doi:10.1038/s41467-023-39022-2), copy in the FLAb collection.